From PubChem BioAssay AID2233 (The Scripps Research Institute Molecular Screening Center, 2010)
This is a selection; strong and weak results do not stand in their true shares. Calls of active or inactive are those of the source.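 Rule for the calls: active = mean inhibition across replicates above the hit cutoff set in the primary screen (cut at about 15% in these data); inactive = the rest.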

The chains behind the UniProt entries cited, without tags or fusion partners. Where a name states a change or a piece, a line headed by the entry shows the natural chain unless it says otherwise.
UniProt O75608: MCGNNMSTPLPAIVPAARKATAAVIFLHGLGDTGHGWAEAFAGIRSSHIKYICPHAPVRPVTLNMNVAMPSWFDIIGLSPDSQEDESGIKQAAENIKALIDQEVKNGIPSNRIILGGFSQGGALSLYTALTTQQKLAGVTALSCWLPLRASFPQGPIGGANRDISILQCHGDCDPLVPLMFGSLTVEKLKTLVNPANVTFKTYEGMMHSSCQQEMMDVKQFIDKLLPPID

Molecular target: Acyl-protein thioesterase 1 (Homo sapiens) (UniProt O75608)
Assay: LYPLA1 inhibitors, retest, confirmation, counter-screen for PME1 inhibitor project, biochemical, fluorescence polarization, FP-Rh probe ABPP (AID 2233);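 note: loss of FP-Rh probe labeling of LYPLA1 seen as lower polarization; 0% = LYPLA1 with DMSO and 100% = wells lacking LYPLA1 enzyme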
Conditions: recombinant LYPLA1, FP-Rh probe fluorescence polarization; at 5.9 µM; hits give high values

Structure (SMILES)	inhibition
Nc1cccc2c([As](=O)(O)O)cccc12	inactive: 4.71%
CN(C)C(=O)c1cc([N+](=O)[O-])cc2c1-c1c(cc([N+](=O)[O-])cc1[N+](=O)[O-])C2=O	inactive: 0.67%
